Protein sequences, listed by entry. Tags and fused reporters are not part of them. Residues count along the entry.
UniProt P06401, 165-933: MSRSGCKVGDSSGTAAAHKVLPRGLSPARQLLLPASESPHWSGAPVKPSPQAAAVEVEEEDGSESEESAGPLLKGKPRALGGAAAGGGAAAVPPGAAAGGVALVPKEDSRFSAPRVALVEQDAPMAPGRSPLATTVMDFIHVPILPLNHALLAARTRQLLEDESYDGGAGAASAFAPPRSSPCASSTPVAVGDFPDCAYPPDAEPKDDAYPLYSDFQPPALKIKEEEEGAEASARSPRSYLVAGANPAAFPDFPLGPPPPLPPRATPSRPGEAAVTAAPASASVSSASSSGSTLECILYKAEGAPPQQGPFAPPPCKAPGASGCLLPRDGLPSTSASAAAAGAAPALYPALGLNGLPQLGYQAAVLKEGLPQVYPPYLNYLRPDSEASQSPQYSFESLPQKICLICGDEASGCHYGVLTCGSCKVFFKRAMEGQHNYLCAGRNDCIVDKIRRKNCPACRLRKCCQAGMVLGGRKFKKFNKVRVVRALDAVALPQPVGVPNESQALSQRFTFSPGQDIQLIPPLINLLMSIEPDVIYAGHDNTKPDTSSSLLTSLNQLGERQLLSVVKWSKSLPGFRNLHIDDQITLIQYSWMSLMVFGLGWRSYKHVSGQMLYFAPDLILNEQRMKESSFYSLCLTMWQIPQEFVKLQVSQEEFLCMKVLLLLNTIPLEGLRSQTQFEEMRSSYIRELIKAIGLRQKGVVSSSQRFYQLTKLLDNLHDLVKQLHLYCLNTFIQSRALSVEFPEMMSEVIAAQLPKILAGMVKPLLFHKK
UniProt P06401, whole entry: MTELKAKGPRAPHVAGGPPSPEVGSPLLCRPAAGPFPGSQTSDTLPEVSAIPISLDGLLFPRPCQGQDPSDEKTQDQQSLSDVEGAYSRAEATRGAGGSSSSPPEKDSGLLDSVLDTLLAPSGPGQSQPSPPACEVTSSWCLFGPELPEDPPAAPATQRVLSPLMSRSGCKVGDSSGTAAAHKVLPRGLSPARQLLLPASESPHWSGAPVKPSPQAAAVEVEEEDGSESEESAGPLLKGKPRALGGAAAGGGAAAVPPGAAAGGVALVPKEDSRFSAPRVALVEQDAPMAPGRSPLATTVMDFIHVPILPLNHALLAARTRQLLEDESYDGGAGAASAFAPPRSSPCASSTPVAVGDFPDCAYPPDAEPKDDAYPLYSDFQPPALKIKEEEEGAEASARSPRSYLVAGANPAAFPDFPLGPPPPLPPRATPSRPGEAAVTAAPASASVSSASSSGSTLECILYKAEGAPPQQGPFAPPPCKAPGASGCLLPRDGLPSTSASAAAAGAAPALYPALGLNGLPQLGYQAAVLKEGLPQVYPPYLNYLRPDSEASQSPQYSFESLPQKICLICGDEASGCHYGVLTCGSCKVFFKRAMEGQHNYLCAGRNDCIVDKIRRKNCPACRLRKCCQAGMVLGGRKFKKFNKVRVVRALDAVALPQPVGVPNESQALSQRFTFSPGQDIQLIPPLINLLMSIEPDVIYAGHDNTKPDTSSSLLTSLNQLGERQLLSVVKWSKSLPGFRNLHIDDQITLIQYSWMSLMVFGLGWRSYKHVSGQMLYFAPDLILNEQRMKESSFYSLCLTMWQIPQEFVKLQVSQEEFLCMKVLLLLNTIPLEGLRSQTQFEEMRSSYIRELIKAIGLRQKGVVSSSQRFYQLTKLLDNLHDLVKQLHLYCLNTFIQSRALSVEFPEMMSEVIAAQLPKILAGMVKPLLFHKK

According to patent US9156877B2, “17-hydroxy-17-pentafluorethyl-estra-4,9(10)-dien-11-benzylidene derivatives, methods for the production thereof and use thereof for treating diseases” (Bayer Intellectual Property GmbH, priority 2009, dated 2015):

Tests used:
[1] = molecular target: human progesterone receptor A (Homo sapiens, UniProt P06401); assay: Progesterone receptor-antagonistic action in stably transfected SK-N-MC cells with MMTV-LUC reporter (PR-A); settings: read-out: PR-A IC50, antagonistic potency against 0.1 nmol/l promegestone, 24 hours, luciferase
Procedure: (§1) Determination of Progesterone Receptor-Antagonistic Action in Stable Transfectants of Human Neuroblastoma Cells (SK-N-MC Cells) with the Human Progesterone A or Progesterone B Receptor and an MN-LUC Reporter Construct
(§2) SK-N-MC cells (human neuroblastoma cells) which have been stably transfected with plasmids expressing the human progesterone receptor B (pRChPR-B-neo) or the human progesterone receptor A (pRChPR-A-neo) and a reporter construct (pMMTV-LUC) were incubated for 24 hours either in the absence (negative control) or in the presence of ascending amounts of the particular test compound (0.01 nmol/l, 0.1 nmol/l, 1 nmol/l, 10 nmol/l, 100 nmol/l and […]), in order to determine the agonistic efficacy. As a positive control of the reporter gene induction, the cells were treated with the synthetic gestagen promegestone (0.01 nmol/l, 0.1 nmol/l, 1 nmol/l, 10 nmol/l, 100 nmol/l and […]). To determine the antagonistic activity, the cells were treated with 0.1 nmol/l promegestone and additionally with ascending amounts of the particular test compound (0.01 nmol/l, 0.1 nmol/l, 1 nmol/l, 10 nmol/l, 100 nmol/l and […]). The activity of the reporter gene LUC (LUC=luciferase) was determined in the cell lysates and measured as RLU (relative light units). All measurements are reported as % efficacy and as EC50 and IC50 concentrations.

[2] = molecular target: human progesterone receptor B (Homo sapiens, UniProt P06401); assay: Progesterone receptor-antagonistic action in stably transfected SK-N-MC cells with MMTV-LUC reporter (PR-B); settings: read-out: PR-B IC50, antagonistic potency against 0.1 nmol/l promegestone, 24 hours, luciferase
Procedure: as §1, §2

[3] = Metabolic stability in human liver microsomes
Procedure: (§3) Determination of Metabolic Stability in Human and Rat Liver Microsomes
Isolated human liver microsomes (HLM) were used to assess the metabolic stability of compounds of general formula I.
The incubations were conducted with 2.4 ml of HLM solution (protein content 0.5 mg/ml), 30 μl of the test compound (final concentration 1 μM) and 0.6 ml of the cofactor mixture (═NADPH-generating system composed of 3 IU glucose-6-phosphate dehydrogenase, 14.6 mg glucose-6-phosphate, 1.2 mg NADP) at 37° C. in 100 mM phosphate buffer at pH 7.4. Samples were taken at 6 time points (2-60 min) and precipitated with an equal volume of methanol, and the recovery of the test substances used in the supernatant was determined by LC-MS/MS analysis. The half-life of substance degradation determined therefrom was used to calculate what is called the intrinsic clearance of the substance in the liver microsome preparation. With the aid of this, together with various physiological parameters (human hepatic blood flow: 1.3 l*kg/h; specific liver weight (per kg of body weight): 21 g/kg; microsomal protein content: 40 mg/g of liver), in accordance with the well-stirred model, (metabolic) in vivo clearance in relation to phase I reactions was predicted. […]

[4] = Metabolic stability in rat liver microsomes
Procedure: as §3
The incubations were conducted with 2.4 ml of HLM solution (protein content 0.5 mg/ml), 30 μl of the test compound (final concentration 1 μM) and 0.6 ml of the cofactor mixture (═NADPH-generating system composed of 3 IU glucose-6-phosphate dehydrogenase, 14.6 mg glucose-6-phosphate, 1.2 mg NADP) at 37° C. in 100 mM phosphate buffer at pH 7.4. Samples were taken at 6 time points (2-60 min) and precipitated with an equal volume of methanol, and the recovery of the test substances used in the supernatant was determined by LC-MS/MS analysis. The half-life of substance degradation determined therefrom was used to calculate what is called the intrinsic clearance of the substance in the liver microsome preparation. With the aid of this, together with various physiological parameters (human hepatic blood flow: 1.3 l*kg/h; specific liver weight (per kg of body weight): 21 g/kg; microsomal protein content: 40 mg/g of liver), in accordance with the well-stirred model, (metabolic) in vivo clearance in relation to phase I reactions was predicted. In addition, under the assumptions that (i) absorption of the test substance is 100%, and (ii) the first pass is completely reflected by liver microsome metabolism, a maximum oral bioavailability (Fmax) was calculated.

[5] = Solubility in aqueous medium at pH 7.4
Excerpt: In addition, some compounds have an unusually good solubility, for this active ingredient class, in aqueous medium under physiological conditions (Table 2).

- IC50 [1]: 0.012 nM
- IC50 [2]: 0.011 nM
- Predicted Fmax [%] (maximum oral bioavailability) Human [3]: 71%
- Predicted clearance [l/h/kg] Human ([3]; 1 μM, well-stirred model): 0.38 L/h/kg
- Predicted Fmax [%] (maximum oral bioavailability) Rat [4]: 79%
- Predicted clearance [l/h/kg] Rat ([4]; well-stirred model): 0.9 L/h/kg
- Solubility at pH 7.4 [mg/l] [5]: 6 mg/l
Structure (SMILES): C[C@]12C[C@H](c3ccc(/C=C/c4cccnc4)cc3)C3=C4CCC(=O)C=C4CC[C@H]3[C@@H]1CC[C@@]2(O)C(F)(F)C(F)(F)F
